Assay results as given in patent US20140066367A1, “SUBCUTANEOUS DELIVERY OF A LONG-ACTING NATRIURETIC PEPTIDE” (Mayo Foundation for Medical Education and Research, priority 2012, published 2014).

What was measured:
[1] = Plasma ANP immunoreactivity and pharmacokinetics after subcutaneous administration to conscious canines; type: in vivo, canine
Procedure: (§1) Studies were performed in accordance with the Animal Welfare Act and with approval of the Mayo Clinic Institutional Animal Care and Use Committee. A randomized crossover study was designed in which equimolar (2.225 nmol/kg) SQ M-ANP and SQ ANP were administered to conscious healthy adult canines (n=5) at 2-week intervals. Vehicle (SQ 0.9% normal saline) was administered to 3 canines serving as a control group. At least 7 days prior to the above studies, an arterial port was placed in the femoral artery as previously described (Cataliotti et al. (2008) Circulation, 118:1729-1736). After recovery from arterial port placement, canines were fed a fixed sodium diet of 100 mEq/d with ad libitum access to water for 5 days before initiation of studies. During this time, canines were acclimatized to standing calm in a sling. On the day of the experiment, the dogs were fasted and placed in a sling in a quiet room. Thirty minutes before the beginning of the experiment, the femoral artery port was accessed for continuous BP and heart rate assessment (iWorx, Dover, N.H.). After 30 minutes of acclimatization, the study protocol was started. Subcutaneous M-ANP, ANP or vehicle was administered at time 0 minutes. At time −15, 0, 5, 10, 15, 30, 45, 60, 75, 90, 120, 150, 180, 210, 240, 270, and 300 minutes, mean arterial pressure (MAP) and heart rate samples were obtained over a period of 1 minute. At the same times, arterial blood samples were obtained for measurement of plasma ANP and cGMP immunoreactivity. The study was completed 300 minutes after the SQ administration of M-ANP, ANP, or vehicle, and the arterial port was disengaged. Canines were allowed to recuperate for two weeks between studies.
Blood samples were collected in chilled EDTA tubes, immediately placed on ice, and centrifuged at 4° C. Plasma was stored at −80° C. until analysis. After extraction, plasma ANP immunoreactivity (Phoenix Pharmaceuticals, Burlingame, Calif.) was assessed by radioimmunoassay as previously described (Burnett et al. (1986) Science, 231:1145-1147). The cross-reactivity for M-ANP with the above assay is 100% (McKie et al. (2010) Hypertension, 56:1152-1159). Plasma cGMP (PerkinElmer, Waltham, Mass.) was assessed by radioimmunoassay (Steiner et al., supra).
Pharmacokinetic profile of M-ANP compared to ANP was determined using PK Solutions software (Summit PK, Montrose, Colo.). Specific parameters that were determined included plasma half-life, maximum concentration (Cmax) and area under the curve (AUC).

[2] = Mean arterial pressure and heart rate after subcutaneous administration to conscious canines; type: in vivo, canine; conditions: SQ
Procedure: as §1, with “At the same times, arterial blood samples were obtained for measurement of plasma ANP and cGMP immunoreactivity. The study was completed 300 minutes after the SQ administration of M-ANP, ANP, or vehicle, and the arterial port was disengaged. Canines were allowed to recuperate for two weeks between studies.” left out

time ANP immunoreactivity remained significantly elevated ([1]; SQ, canines): 150 min | time of peak ANP immunoreactivity after administration ([1]; SQ, canines): 60 min | half-life ([1]; dog, in vivo, sc, subcutaneous, equimolar 2.225 nmol/kg, conscious canines): 47.4 ± 12.7 min | Cmax ([1]; dog, in vivo, sc, subcutaneous, equimolar 2.225 nmol/kg, conscious canines, read-out: ANPi Cmax): 0.38 ± 0.1 nM | half-life ([1]; dog, in vivo, SQ-administered, canines): 47 min | ANPi AUC ([1]; subcutaneous, equimolar 2.225 nmol/kg, conscious canines): 44.9 ± 12.3 pmol·min/mL
Structure (SMILES): CC[C@H](C)[C@@H]1NC(=O)[C@H](CCCNC(=N)N)NC(=O)[C@H](CC(=O)O)NC(=O)[C@H](CCSC)NC(=O)[C@H](CCCNC(=N)N)NC(=O)CNC(=O)CNC(=O)[C@H](Cc2ccccc2)NC(=O)[C@@H](NC(=O)[C@H](CO)NC(=O)[C@H](CO)NC(=O)[C@H](CCCNC(=N)N)NC(=O)[C@H](CCCNC(=N)N)NC(=O)[C@H](CC(C)C)NC(=O)[C@@H](N)CO)CSSC[C@@H](C(=O)N[C@@H](CC(N)=O)C(=O)N[C@@H](CO)C(=O)N[C@@H](Cc2ccccc2)C(=O)N[C@@H](CCCNC(=N)N)C(=O)N[C@@H](Cc2ccc(O)cc2)C(=O)N[C@@H](CCCNC(=N)N)C(=O)N[C@H](C(=O)N[C@H](C(=O)N[C@@H](C)C(=O)N[C@@H](CCCNC(=N)N)C(=O)N[C@@H](CCC(=O)O)C(=O)N[C@@H](CC(=O)O)C(=O)N[C@@H](CCCCN)C(=O)N[C@@H](CCC(N)=O)C(=O)NCC(=O)N[C@@H](Cc2c[nH]c3ccccc23)C(=O)N[C@@H](C)C(=O)O)[C@@H](C)O)[C@@H](C)CC)NC(=O)CNC(=O)[C@H](CC(C)C)NC(=O)CNC(=O)[C@H](CO)NC(=O)[C@H](CCC(N)=O)NC(=O)[C@H](C)NC(=O)CNC1=O [M-ANP]
heart rate compared to ANP administration [2]: not significantly different
